PubChem BioAssay AID485360 (National Center for Advancing Translational Sciences (NCATS), 2010)
Only a part is listed here, and it is no random draw. Inconclusive results are not listed. The source made the active and inactive calls. The call rests on the fitted dose curve; in most records, active means well fitted inhibition curve with a large enough effect; inconclusive means small, poorly fitted or top-dose-only effect; inactive means no such curve, though single readings can be large or run the other way.

By UniProt entry, the sequences of proteins in these tests, tags left out.
UniProt Q9Y468, whole entry: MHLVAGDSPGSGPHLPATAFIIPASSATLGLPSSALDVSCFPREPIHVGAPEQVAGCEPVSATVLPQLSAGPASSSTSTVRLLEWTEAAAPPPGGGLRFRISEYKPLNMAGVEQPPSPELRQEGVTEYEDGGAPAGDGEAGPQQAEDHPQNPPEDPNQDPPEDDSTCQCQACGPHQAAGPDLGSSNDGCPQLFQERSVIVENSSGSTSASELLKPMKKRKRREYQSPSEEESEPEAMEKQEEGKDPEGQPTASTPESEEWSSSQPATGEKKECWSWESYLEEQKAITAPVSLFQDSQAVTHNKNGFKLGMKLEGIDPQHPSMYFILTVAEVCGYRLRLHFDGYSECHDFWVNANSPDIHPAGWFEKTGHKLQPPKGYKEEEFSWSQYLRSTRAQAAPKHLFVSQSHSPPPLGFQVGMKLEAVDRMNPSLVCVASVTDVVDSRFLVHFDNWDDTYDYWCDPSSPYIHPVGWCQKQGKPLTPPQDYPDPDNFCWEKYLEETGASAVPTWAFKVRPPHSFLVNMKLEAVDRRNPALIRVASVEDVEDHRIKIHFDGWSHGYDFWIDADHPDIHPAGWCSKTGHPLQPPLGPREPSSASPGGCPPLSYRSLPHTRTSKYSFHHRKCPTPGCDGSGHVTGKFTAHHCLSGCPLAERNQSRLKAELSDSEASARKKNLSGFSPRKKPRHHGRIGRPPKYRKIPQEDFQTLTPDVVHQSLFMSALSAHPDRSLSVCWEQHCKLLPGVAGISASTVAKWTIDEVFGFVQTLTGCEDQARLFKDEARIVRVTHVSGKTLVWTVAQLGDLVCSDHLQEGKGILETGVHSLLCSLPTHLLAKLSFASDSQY

target: Lethal(3)malignant brain tumor-like protein 1 (Homo sapiens) (UniProt Q9Y468); assay: qHTS Assay for the Inhibitors of L3MBTL1; details: AlphaScreen L3MBTL1–H3K9me1 peptide binding; at 57.1 µM (top of the series) unless noted; further: nearly all actives have a fitted effect of over 60% in size
On the % scale 0 is the no-effect control and ±100 the full control effect.

| Compound | activity, negative = inhibition |
| --- | --- |
| COc1cc(OC)cc(C(=O)NCC2(N3CCOCC3)CCCCC2)c1 | inactive: 3.72% |
| CCC(CO)(C(=O)OC1CN2CCC1CC2)c1ccccc1 (centres undefined) | inactive: 9.67% |
| CCCOc1ccc(C)cc1CN(CCCl)CCCl | inactive: 5.98% |
| CN1CCC(Nc2ccc(F)c(Cl)c2)CC1 | inactive: -5.1% |
| CC(C)(C)OC(=O)N1CCC(Nc2ccccc2)CC1 | inactive: 8.45% |
| CCN1CCC(Nc2cccc(F)c2)CC1 | inactive: -4.65% |
| CN(C)c1ccc(C(=O)NCC2(N3CCCCC3)CCCCC2)cc1 | inactive: 4.95% |
| O=C(NCC1(N2CCCCC2)CCCCC1)c1ccco1 | inactive: 1.16% |
| Fc1ccccc1NC1CCN(Cc2ccccc2)CC1 | inactive: -0.114% |
| Cc1ccc(C(=O)NCC2(N3CCCCC3)CCCCC2)o1 | inactive: -1.82% |
| CCCN1CCC(Nc2cc(OC)cc(OC)c2)CC1 | inactive: -4.81% |
| N#Cc1ccc(C(=O)NCC2(N3CCCCC3)CCCCC2)cc1 | inactive: -5.39% |
| CCOC(=O)C(CC)C1=NC(C)(C)Cc2ccccc21.O=[N+]([O-])c1cc([N+](=O)[O-])c(O)c([N+](=O)[O-])c1 (centres undefined) | inactive: 0.655% |
| CCOC(=O)N1CCC(Nc2ccc(C)cc2)CC1 | inactive: 4.93% |
| N/C(=N\O)c1c(N)no[n+]1[O-] | inactive: 7.98% |
| CCc1cc(C(=O)NCC2(N3CCCCC3)CCCCC2)sc1C | inactive: -1.04% |
| O=C(OC1CN2CCC1CC2)C1c2ccccc2C=Cc2ccccc21 (centres undefined) | inactive: -3.01% |
| COc1cc(C(=O)NCC2(N3CCOCC3)CCCCC2)cc(OC)c1C | inactive: -4.84% |
| O=C(NCC1(N2CCOCC2)CCCCC1)c1cc(Br)ccc1Cl | inactive: 5.97% |
| O=C(OC1CN2CCC1CC2)c1ccc([N+](=O)[O-])cc1 (centres undefined) | inactive: -5.49% |
| O=C(NCC1(N2CCCCC2)CCCCC1)c1cncc(Br)c1 | inactive: 4.02% |
| O=[N+]([O-])c1cc([N+](=O)[O-])c(OC2CCCCC2O)c([N+](=O)[O-])c1 (centres undefined) | inactive: -1.81% |

| Compound | activity, negative = inhibition |
| --- | --- |
| COc1ccc(CN(CCCl)CCCl)cc1Cl | inactive: -12% |
| O=C(NCC1(N2CCOCC2)CCCCC1)c1cc(F)c(F)cc1Cl | inactive: 5.28% |
| O=[N+]([O-])c1cc([N+](=O)[O-])c(NCC2CCS(=O)(=O)C2)c([N+](=O)[O-])c1 (centres undefined) | inactive: -10.7% |
| COc1ccc(NC2CCN(C(=O)OC(C)(C)C)CC2)cc1 | inactive: -12.3% |
| CC(C)c1ccc(C(=O)NCC2(N3CCOCC3)CCCCC2)cc1 | inactive: -16.6% |
| CN1CCN(CCOC(=O)C(O)(c2ccccc2)c2ccccc2)CC1 | inactive: 11.5% |
| N#CC1(Nc2ccccc2)CCN(CCc2ccccc2)CC1 | inactive: -6.17% |
| O=C(NCC1(N2CCCCC2)CCCCC1)c1cccc([N+](=O)[O-])c1 | inactive: 21.6% |
| CSc1ccc(C(=O)NCC2(N3CCOCC3)CCCCC2)cc1 | inactive: -3.65% |
| Cc1ccc(OCC(C)C)c(CN(CCCl)CCCl)c1 | inactive: -1.71% |
| CCOc1ccc(C)cc1CN(CCCl)CCCl | inactive: 7.45% |
| CCOC(=O)N1CCC(Nc2ccc(F)cc2)CC1 | inactive: -2.52% |
| COc1ccc(NC2CCN(CCc3ccccc3)CC2)c(OC)c1 | inactive: -11.8% |
| CCCCOc1ccc(C(=O)NCC2(N3CCOCC3)CCCCC2)cc1 | inactive: 3.48% |
| O=C(NCC1(N2CCCCC2)CCCCC1)c1ccc(Cl)nc1 | inactive: -6.02% |
| COc1ccc(Cl)cc1C(=O)NCC1(N2CCOCC2)CCCCC1 | inactive: 3.34% |
| O=C(NCC1(N2CCCCC2)CCCCC1)c1ccc(Cl)s1 | inactive: 7.33% |
| N#CC1(Nc2ccccc2)CCN(Cc2ccccc2)CC1 | inactive: 7.12% |
| O=C(OC1CN2CCC1CC2)C1c2ccccc2Oc2ccccc21 (centres undefined) | inactive: -2.77% |
| CCOC(=O)N1CCC(Nc2ccc(OC)cc2)CC1 | inactive: -4.54% |
| COc1ccc(C(=O)NCC2(N3CCCCC3)CCCCC2)c(OC)c1OC | inactive: 28.9% [at 11.4 µM] |
| O=C(NCC1(N2CCCCC2)CCCCC1)c1cccs1 | inactive: 4.72% |
